Test results published in ChEMBL document CHEMBL4033748, “SAR and characterization of non-substrate isoindoline urea inhibitors of nicotinamide phosphoribosyltransferase (NAMPT)” (Bioorg Med Chem Lett, 2017).

Protein sequences, listed by entry. Tags and fused reporters are not part of them. Lines headed by an entry give the natural chain unless they say otherwise; changes in a name come on top.
UniProt P43490: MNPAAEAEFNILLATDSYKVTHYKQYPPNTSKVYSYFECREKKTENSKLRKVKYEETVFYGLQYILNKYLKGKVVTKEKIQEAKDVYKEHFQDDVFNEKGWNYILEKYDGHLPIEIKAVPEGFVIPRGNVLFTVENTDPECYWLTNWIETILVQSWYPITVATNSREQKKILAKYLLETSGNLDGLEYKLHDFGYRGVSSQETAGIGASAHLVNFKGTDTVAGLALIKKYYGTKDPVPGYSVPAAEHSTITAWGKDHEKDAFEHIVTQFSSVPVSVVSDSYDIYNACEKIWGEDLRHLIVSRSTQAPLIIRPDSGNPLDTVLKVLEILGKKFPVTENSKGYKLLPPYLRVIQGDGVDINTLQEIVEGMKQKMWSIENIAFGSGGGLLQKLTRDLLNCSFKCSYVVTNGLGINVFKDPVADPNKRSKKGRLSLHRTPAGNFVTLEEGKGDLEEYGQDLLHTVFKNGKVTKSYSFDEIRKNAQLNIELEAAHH

Molecular target: Nicotinamide phosphoribosyltransferase (Homo sapiens, UniProt P43490)

Compared with `O=C(NCc1ccccc1)c1ccc(NC(=O)N2Cc3ccccc3C2)cc1`, `O=C(NCCCc1ccccc1)c1ccc(NC(=O)N2Cc3ccccc3C2)cc1` is 2.1-fold lower in Ki: 0.019 µM for the first, 0.009 µM for the second.

`CC(C)CCNC(=O)c1ccc(NC(=O)N2Cc3ccncc3C2)cc1` and `CC(C)CCNC(=O)c1ccc(NC(=O)N2Cc3ccccc3C2)cc1` are within 1.5-fold of each other in Ki: 0.0075 µM for the first, 0.011 µM for the second.

Compared with `CC(C)C(=O)N1CCC(c2ccc(NC(=O)N3Cc4ccccc4C3)cc2)CC1`, `O=C(Nc1ccc(C2CCN(C(=O)c3ccccc3)CC2)cc1)N1Cc2ccccc2C1` is 15-fold lower in Ki: 0.015 µM for the first, 0.001 µM for the second. The second binds more tightly here.

Compared with `O=C(Nc1ccc(C2=CCN(C(=O)c3ccccc3)CC2)cc1)N1Cc2ccccc2C1`, `O=C(Nc1ccc(N2CCN(C(=O)c3ccccc3)CC2)cc1)N1Cc2ccccc2C1` is 6.3-fold higher in Ki: 0.003 µM for the first, 0.019 µM for the second.

Compared with `O=C(NCC1CCOC1)c1ccc(NC(=O)N2Cc3ccccc3C2)cc1` (stereo not given), `O=C(NCC1CCCOC1)c1ccc(NC(=O)N2Cc3ccccc3C2)cc1` (stereo not given) is 1.8-fold lower in Ki: 0.024 µM for the first, 0.013 µM for the second. The second binds more tightly here.

Going from `Cc1ccc2c(c1)CN(C(=O)Nc1ccc(C(=O)NCCC(C)C)cc1)C2` to `CC(C)CCNC(=O)c1ccc(NC(=O)N2Cc3ccc(F)cc3C2)cc1`, the Ki falls from 0.013 µM to 0.0079 µM (1.6-fold).

Compared with `O=C(NCCCCC1CCN(C(=O)c2ccccc2)CC1)N1Cc2ccccc2C1`, `CC(C)(C)CCNC(=O)c1ccc(NC(=O)N2Cc3ccccc3C2)cc1` is 8.8-fold higher in Ki: 0.0016 µM for the first, 0.014 µM for the second.

`CC(C)CCNC(=O)c1ccc(NC(=O)N2Cc3ccc(C(F)(F)F)cc3C2)cc1` and `CC(C)CCNC(=O)c1ccc(NC(=O)N2Cc3cccc(Cl)c3C2)cc1` are within 1.5-fold of each other in Ki: 0.023 µM for the first, 0.017 µM for the second.

`CC(C)CCn1cc(-c2ccc(NC(=O)N3Cc4ccccc4C3)cc2)cn1` and `CC(C)C[C@@H](CO)NC(=O)c1ccc(NC(=O)N2Cc3ccccc3C2)cc1` are within 1.5-fold of each other in Ki: 0.023 µM for the first, 0.019 µM for the second.

Compared with `NC(=O)c1ccc(NC(=O)N2Cc3ccccc3C2)cc1`, `CC(C)CCNC(=O)c1ccc(NC(=O)N2Cc3ccccc3C2)nc1` is 100-fold lower in Ki: 0.56 µM for the first, 0.0054 µM for the second. The second binds more tightly here.
